Only a part is listed here, and it is no random draw. Activity calls are given as the source filed them.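 The calls were made as follows: active = inhibition above the mean of compounds falling within the control limits plus 3 SD of them (cut at about 14% in these data); inactive = the rest.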
What follows are compounds tested against Fibrinogen beta chain (Homo sapiens) (UniProt P02675) (assay: inhibitors of Tn7 peptide binding to fibrin DD(E), primary screen, biochemical, fluorescence polarization, human fibrin, Tn7 probe (AID 720508;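 also: 0% = plate median of compound wells and 100% = 10 µM Aha-Tn7 peptide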)). Settings: FP displacement of FITC-Tn7 peptide from fibrin DD(E); at 8.3 µM; active compounds read high; 0% = median of compound wells per plate.

Amino acid sequences for entries named in this document (tags omitted).
UniProt P02675, whole entry, looked up: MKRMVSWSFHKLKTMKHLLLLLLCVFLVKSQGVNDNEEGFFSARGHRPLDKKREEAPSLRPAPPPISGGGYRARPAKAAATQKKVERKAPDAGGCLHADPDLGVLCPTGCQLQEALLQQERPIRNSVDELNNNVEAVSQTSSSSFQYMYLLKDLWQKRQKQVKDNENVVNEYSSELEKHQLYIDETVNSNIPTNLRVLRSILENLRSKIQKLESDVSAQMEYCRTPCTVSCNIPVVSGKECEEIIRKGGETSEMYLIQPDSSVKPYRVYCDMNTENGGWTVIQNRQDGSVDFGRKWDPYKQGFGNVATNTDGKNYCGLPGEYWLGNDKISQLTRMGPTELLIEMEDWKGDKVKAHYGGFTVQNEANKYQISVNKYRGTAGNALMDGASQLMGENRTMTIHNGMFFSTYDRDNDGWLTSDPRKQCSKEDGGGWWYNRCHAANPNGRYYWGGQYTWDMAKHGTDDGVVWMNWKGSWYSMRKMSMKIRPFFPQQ

| Structure (SMILES) | inhibition |
| --- | --- |
| CCC(=O)N(c1ccccc1)C1(COC)CCN(CCn2nnn(CC)c2=O)CC1 | inactive: -2.66% |
| CCC(=O)N(c1ccccc1)C1(COC)CCN(CCc2cccs2)CC1 | inactive: -0.06% |

— PubChem BioAssay AID720508 (The Scripps Research Institute Molecular Screening Center, 2013)
